Source: patent US20200040358A1 (published 2020)

T1: NY-ESO-1 anchor optimized peptide peptide on HLA-A*02:01 (human)
T1 peptide: SLLMWITQV


Key:
[1] = target: T1, NY-ESO-1 anchor optimized peptide …; experiment: multimer staining
[2] = target: T1, NY-ESO-1 anchor optimized peptide …; experiment: activation reporter or marker

binding result [1] | binding result [2] | Binder
recognises | – | TCR18168 (TCR, V domains shown) Valpha: QSVAQPEDQVNVAEGNPLTVKCTYSVSGNPYLFWYVQYPNRGLQFLLKYITGDNLVKGSYGFEAEFNKSQTSFHLKKPSALVSDSALYFCAVRELYSGAGSYQLTFGKGTKLSVIP Vbeta: QKPSRDICQRGTSLTIQCQVDSQVTMMFWYRQQPGQSLTLIATANQGSEATYESGFVIDKFPISRPNLTFSTLTVSNMSPEDSSIYLCSVGGAGVTDTQYFGPGTRLTVL
– | recognises | TCR0018 (TCR, V domains shown) Valpha: QSVAQPEDQVNVAEGNPLTVKCTYSVSGNPYLFWYVQYPNRGLQFLLKYITGDNLVKGSYGFEAEFNKSQTSFHLKKPSALVSDSALYFCAVRDLSDGAGSYQLTFGKGTKLSVIP Vbeta: QKPSRDICQRGTSLTIQCQVDSQVTMMFWYRQQPGQSLTLIATANQGSEATYESGFVIDKFPISRPNLTFSTLTVSNMSPEDSSIYLCSVGGAGVTDTQYFGPGTRLTVL
– | recognises | TCR0022 (TCR, V domains shown) Valpha: QSVAQPEDQVNVAEGNPLTVKCTYSVSGNPYLFWYVQYPNRGLQFLLKYITGDNLVKGSYGFEAEFNKSQTSFHLKKPSALVSDSALYFCAVRDDLVGAGSYQLTFGKGTKLSVIP Vbeta: QKPSRDICQRGTSLTIQCQVDSQVTMMFWYRQQPGQSLTLIATANQGSEATYESGFVIDKFPISRPNLTFSTLTVSNMSPEDSSIYLCSVGGAGVTDTQYFGPGTRLTVL
